The source of these data is PubChem BioAssay AID652010 (The Scripps Research Institute Molecular Screening Center, 2013).

Only a part is listed here, and it is no random draw. Calls of active or inactive are those of the source.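 The calls were made as follows: active = inhibition above the mean over all tested compounds plus 3 SD (cut at about 3.6% in these data); inactive = the rest.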

The assay is described as follows: relief of DAX-1 repression of SF-1 activity – cell-based, luminescence, SF-1 (NR5A1), full-length DAX-1, primary screen (AID 652010).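 Also: 0% = DAX-1 cells with DMSO and 100% = cells lacking DAX-1 with DMSO; higher inhibition means more luminescence from relief of DAX-1 repression.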 Conditions: HEK293T StAR-luciferase reporter, SF-1/DAX-1 repression relief; at 6.8 µM; hits give high values.
As to `CSc1ccccc1C(=O)NCC1(N2CCCCC2)CCCCC1`, the inhibition was inactive: -0.08%.

As for `Cc1cccc(NC2(C#N)CCN(Cc3ccccc3)CC2)c1`, the inhibition is inactive: 0.95%. For the molecule `COc1ccc(C(=O)NCC2(N3CCCCC3)CCCCC2)cc1`, the inhibition was inactive: 0.88%. For `CCC(c1nnnn1C1CCCC1)N1CCC(n2c(=O)[nH]c3ccccc32)CC1` (stereo not drawn), the inhibition is inactive: -1.43%. With `CC(C)(C)OC(=O)N1CCC(N(C(=O)c2ccccc2)c2ccc(F)cc2)CC1`, the inhibition was inactive: -0.19%.

With `COc1ccc(C(=O)NCC2(N3CCCCC3)CCCCC2)c(OC)c1OC`, the inhibition is inactive: 1.06%. Take `O=C(NCC1(N2CCCCC2)CCCCC1)c1ccc(=O)[nH]c1`: the inhibition was active: 6.38%. `CCCCn1nnnc1C(c1cccs1)N1CCC(n2c(=O)[nH]c3ccccc32)CC1` (stereo not drawn): the inhibition is inactive: -3.78%. With `O=C(NCC1(N2CCCCC2)CCCCC1)c1cccs1`, the inhibition was inactive: 2.9%.

As for `CCCCn1nnnc1C(CC)N1CCC(n2c(=O)[nH]c3ccccc32)CC1` (stereo not drawn), the inhibition is inactive: -1.04%. As to `O=c1[nH]c2ccccc2n1C1CCN(C(c2cc3ccccc3o2)c2nnnn2C2CCCCC2)CC1` (stereo not drawn), the inhibition was inactive: 3.03%. Turning to `O=C(OC1CN2CCC1CC2)C1c2ccccc2Oc2ccccc21` (stereo not drawn), the inhibition is inactive: 0.1%. Next, `N#CC1(Nc2ccccc2)CCN(Cc2ccccc2)CC1`: inactive: -0.31%; `O=C(NCC1(N2CCCCC2)CCCCC1)c1ccc(Cl)s1`: inactive: 1.37%; `COc1ccc(Cl)cc1C(=O)NCC1(N2CCOCC2)CCCCC1`: inactive: -0.16%. As for `CCOC(=O)N1CCC(Nc2ccc(OC)cc2)CC1`, the figure is inactive: 0.08%; as for `CCCCn1nnnc1C(c1ccc(OC)cc1)N1CCC(n2c(=O)[nH]c3ccccc32)CC1` (stereo not drawn), inactive: -1.19%.

On to `O=c1[nH]c2ccccc2n1C1CCN(C(c2ccccc2OC(F)(F)F)c2nnnn2C2CCCCC2)CC1` (stereo not drawn), for which the inhibition was inactive: 0.71%.

As for `O=C(NCC1(N2CCCCC2)CCCCC1)c1ccc(Cl)nc1`, the inhibition is active: 6.16%. Regarding `Cc1cc(C)cc(N(C(=O)c2ccccc2)C2CCN(C(=O)OC(C)(C)C)CC2)c1`, the inhibition is inactive: -0.55%. As for `O=C(NCC1(N2CCOCC2)CCCCC1)c1cc2ccccc2o1`, the figure is inactive: 0.49%. For `COc1cc(OC)c(C(=O)NCC2(N(C)C)CCCCC2)cc1OC`, the inhibition was inactive: 0%. On to `CCC(c1nnnn1C(C)(C)C)N1CCC(n2c(=O)[nH]c3ccccc32)CC1` (stereo not drawn), for which the inhibition is inactive: -1.96%. Turning to `O=C(NCC1(N2CCOCC2)CCCCC1)c1cc(F)c(F)cc1Cl`, the inhibition is inactive: -0.36%. With `CCCCn1nnnc1C(c1ccnc2ccccc12)N1CCC(n2c(=O)[nH]c3ccccc32)CC1` (stereo not drawn), the inhibition was inactive: -0.27%. In the case of `CC(C)c1ccc(NC2CCN(C(=O)OC(C)(C)C)CC2)cc1`, the inhibition is inactive: 0.97%. As for `COC(=O)C1(Nc2ccccc2)CCN(Cc2ccccc2)CC1`, the figure is inactive: -0.31%; as for `COc1ccc(CN(CCCl)CCCl)cc1Cl`, inactive: -0.38%; as for `CN(C)c1cccc(C(=O)NCC2(N3CCCCC3)CCCCC2)c1`, inactive: 0.8%. In the case of `COc1ccc(C(c2nnnn2C2CCCC2)N2CCC(n3c(=O)[nH]c4ccccc43)CC2)cc1` (stereo not drawn), the inhibition is inactive: -0.12%.

In the case of `Cc1ccc(C(=O)NCC2(N(C)C)CCCCC2)o1`, the inhibition is inactive: 1.55%. Take `CCCOc1ccc(C(=O)NCC2(N(C)C)CCCCC2)cc1OC`: the inhibition is inactive: 0.05%. On to `O=C(NCC1(N2CCCCC2)CCCCC1)c1cncc(Br)c1`, for which the inhibition was active: 4.3%.

For the molecule `CN1CCC(Nc2cccc(F)c2)CC1`, the inhibition is inactive: 0.18%. `CCN1CCC(Nc2ccc(Cl)cc2)CC1`: the inhibition is inactive: -0.53%. Turning to `N#CC1(Nc2ccccc2)CCN(CCc2ccccc2)CC1`, the inhibition was inactive: -0.4%. Consider `O=c1[nH]c2ccccc2n1C1CCN(C(c2ccccc2OC(F)(F)F)c2nnnn2C2CCCC2)CC1` (stereo not drawn), for which the inhibition was inactive: 0.48%. Regarding `CSc1ccc(C(=O)NCC2(N3CCOCC3)CCCCC2)cc1`, the inhibition is active: 5.54%. With `O=C(NCC1(N2CCCCC2)CCCCC1)c1cccc([N+](=O)[O-])c1`, the inhibition is inactive: 2.39%. Turning to `CC(C)(C)n1nnnc1C(c1ccccc1OC(F)(F)F)N1CCC(n2c(=O)[nH]c3ccccc32)CC1` (stereo not drawn), the inhibition was inactive: 0.96%. Consider `O=C(NCC1(N2CCCCC2)CCCCC1)c1ccc(OC(F)F)cc1`, for which the inhibition is inactive: 2.19%. `O=C(NCC1(N2CCOCC2)CCCCC1)c1cc(=O)[nH]c2ccccc12`: the inhibition was inactive: 0.24%. Turning to `COc1cc(C(=O)NCC2(N3CCCCC3)CCCCC2)ccc1OC(F)F`, the inhibition is inactive: 0.88%. Take `CCCCn1nnnc1C(c1cccc2ccccc12)N1CCC(n2c(=O)[nH]c3ccccc32)CC1` (stereo not drawn): the inhibition is inactive: -4.4%. With `CC(C)c1ccc(C(=O)NCC2(N3CCOCC3)CCCCC2)cc1`, the inhibition is inactive: 3.13%. Turning to `COc1ccc(NC2CCN(C(=O)OC(C)(C)C)CC2)cc1`, the inhibition is inactive: 0.33%. For the molecule `CN1CCN(CCOC(=O)C(O)(c2ccccc2)c2ccccc2)CC1`, the inhibition is inactive: 0.56%.

In the case of `O=C(NCC1(N2CCCCC2)CCCCC1)c1cccc(C(F)(F)F)c1`, the inhibition was inactive: 0.73%.
